According to US9629848B2, “Compounds that modulate autoimmunity and methods of using the same” (The Regents of the University of Colorado, a body corporate, priority 2011, dated 2017):
Only a part of the results on these compounds is given; other tests are left out.

Key:
[1] = target: DQ8 (Homo sapiens, UniProt P01909+P01920, A209T/A45G/C70Q/D89A/DUP78-78/E183D/E77G/F237L/G63E/H199R/I129T/K197E/L178F/L74F/L98V/Q57E/Q76R/S185I/S97I/T217I/T49S/V73L/Y58L); test: Competitive binding assay B:9-23 to DQ8; details: >100 uM means some effect at 100 uM but not 50% inhibition; < means lower concentrations not used
[2] = test system: clone 5 T cell hybridoma (DQ8 restricted T cell that responds to insulin B:9-23); test: T cell stimulation assay, clone 5 T cell hybridoma with insulin B:9-23 peptide; details: read-out: T cell stimulation Assay Clone 5 & B:9-23 (IC50); IL-2 in supernatant after overnight culture; < means lower concentrations have not been used

**Q.** `NN(CCCl)CCCl` was tested. Which “Competitive Binding Assay B:9-23 to DQ8 (IC50)” value [1] did it give?
**A.** No inhibition

**Q.** What about the IC50 [2] of the same compound?
**A.** < 100 nM
